This passage reports Kd results from publication PMC11419155 (bioRxiv, 2024).

This assay addresses T1, recombinant HAstV2 capsid spike, histidine-tagged (Human astrovirus 2, Oxford strain …).
T1 chain: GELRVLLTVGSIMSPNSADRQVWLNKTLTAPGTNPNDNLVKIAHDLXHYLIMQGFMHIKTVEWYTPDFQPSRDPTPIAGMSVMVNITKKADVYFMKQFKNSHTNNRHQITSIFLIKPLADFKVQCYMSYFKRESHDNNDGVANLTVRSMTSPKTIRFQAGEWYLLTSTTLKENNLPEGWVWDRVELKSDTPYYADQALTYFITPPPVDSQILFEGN
The experiment in a line: BLI. In general terms: In BLI a coated tip is dipped into the sample, and binding shifts an interference pattern.

A word on the Kd: it is the constant that tells how readily two partners part at equilibrium.

B1: recombinant Fab 4B6 (Fab, V domains shown)
VH: QVQLKESGPGLVAPSQSLSITCTVSGFSLTSYGVHWVRQPPGKGLEWLGVIWADGSTNYNSALMSRLSISKDNSKSQVFLKMNSLQTDDTAMYYCARWTYGDYFDYWGQGTTLTVSS
VL: DIQMTQTTSSLSASLGDRVTISCSASQGISNYLNWYQQKPDGTVKLLIYYTSSLHSGVPSRFSGSGSGTDYSLTISNLEPEDIATYYCQQYSKLPYTFGGGTKLEIK
In the case of B1, the Kd stood at 161 nM.
